Reference: ChEMBL document CHEMBL1132230, “1-(1,2,5-Thiadiazol-4-yl)-4-azatricyclo[2.2.1.0(2,6)]heptanes as new potent muscarinic M1 agonists: structure-activity relationship for 3-aryl-2-propyn-1-yloxy and 3-aryl-2-propyn-1-ylthio derivatives” (J Med Chem, 1999)

Chains of the proteins cited; added tags and fusions are not shown.
UniProt P08172, whole entry: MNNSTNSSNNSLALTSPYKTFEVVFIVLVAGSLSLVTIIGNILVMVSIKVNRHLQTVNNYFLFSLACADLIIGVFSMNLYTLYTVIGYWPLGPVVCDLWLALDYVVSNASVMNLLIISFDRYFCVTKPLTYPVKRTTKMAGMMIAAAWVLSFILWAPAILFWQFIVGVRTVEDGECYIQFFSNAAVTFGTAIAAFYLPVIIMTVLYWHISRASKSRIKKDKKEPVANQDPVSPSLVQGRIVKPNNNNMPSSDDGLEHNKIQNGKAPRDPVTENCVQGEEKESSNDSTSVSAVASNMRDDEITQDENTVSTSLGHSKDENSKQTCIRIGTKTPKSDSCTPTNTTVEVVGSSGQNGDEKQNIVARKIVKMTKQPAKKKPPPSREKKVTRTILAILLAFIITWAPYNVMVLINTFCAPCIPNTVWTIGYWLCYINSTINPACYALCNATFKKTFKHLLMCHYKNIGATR

Molecular target: Muscarinic acetylcholine receptor M2 (Homo sapiens, UniProt P08172)
Assay: Compound was tested for its potency towards Muscarinic acetylcholine receptor M2 by inhibiting forskolin induced c-AMP formation in CHO-M2 cells
Assay type: functional, cell-based
Method in brief: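 Human M2 receptor plasmid transfected into CHO cells […], cultured in DMEM/10% FBS with 1 μM atropine and 1 μM methotrexate; atropine-free medium overnight before assay. Cells detached with PBS + 1 mM EDTA, washed into DMEM + 20 mM HEPES pH 7.4 + 0.5 mM IBMX, preincubated 30 min at 0 °C. Forskolin 10 μM final, 10 min at 37 °C; ethanol stop; cAMP by radioimmunoassay.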

CCCCCCOc1nsnc1C1=CCCN(C)C1 [XANOMELINE]
EC50: 398 nM
